Laboratory results reported in patent US20260001922A1, “PEPTIDES TARGETING SODIUM CHANNELS TO TREAT PAIN” (priority 2022, published 2026).

Protein sequences, listed by entry. Tags and fused reporters are not part of them.
UniProt Q15858, whole entry: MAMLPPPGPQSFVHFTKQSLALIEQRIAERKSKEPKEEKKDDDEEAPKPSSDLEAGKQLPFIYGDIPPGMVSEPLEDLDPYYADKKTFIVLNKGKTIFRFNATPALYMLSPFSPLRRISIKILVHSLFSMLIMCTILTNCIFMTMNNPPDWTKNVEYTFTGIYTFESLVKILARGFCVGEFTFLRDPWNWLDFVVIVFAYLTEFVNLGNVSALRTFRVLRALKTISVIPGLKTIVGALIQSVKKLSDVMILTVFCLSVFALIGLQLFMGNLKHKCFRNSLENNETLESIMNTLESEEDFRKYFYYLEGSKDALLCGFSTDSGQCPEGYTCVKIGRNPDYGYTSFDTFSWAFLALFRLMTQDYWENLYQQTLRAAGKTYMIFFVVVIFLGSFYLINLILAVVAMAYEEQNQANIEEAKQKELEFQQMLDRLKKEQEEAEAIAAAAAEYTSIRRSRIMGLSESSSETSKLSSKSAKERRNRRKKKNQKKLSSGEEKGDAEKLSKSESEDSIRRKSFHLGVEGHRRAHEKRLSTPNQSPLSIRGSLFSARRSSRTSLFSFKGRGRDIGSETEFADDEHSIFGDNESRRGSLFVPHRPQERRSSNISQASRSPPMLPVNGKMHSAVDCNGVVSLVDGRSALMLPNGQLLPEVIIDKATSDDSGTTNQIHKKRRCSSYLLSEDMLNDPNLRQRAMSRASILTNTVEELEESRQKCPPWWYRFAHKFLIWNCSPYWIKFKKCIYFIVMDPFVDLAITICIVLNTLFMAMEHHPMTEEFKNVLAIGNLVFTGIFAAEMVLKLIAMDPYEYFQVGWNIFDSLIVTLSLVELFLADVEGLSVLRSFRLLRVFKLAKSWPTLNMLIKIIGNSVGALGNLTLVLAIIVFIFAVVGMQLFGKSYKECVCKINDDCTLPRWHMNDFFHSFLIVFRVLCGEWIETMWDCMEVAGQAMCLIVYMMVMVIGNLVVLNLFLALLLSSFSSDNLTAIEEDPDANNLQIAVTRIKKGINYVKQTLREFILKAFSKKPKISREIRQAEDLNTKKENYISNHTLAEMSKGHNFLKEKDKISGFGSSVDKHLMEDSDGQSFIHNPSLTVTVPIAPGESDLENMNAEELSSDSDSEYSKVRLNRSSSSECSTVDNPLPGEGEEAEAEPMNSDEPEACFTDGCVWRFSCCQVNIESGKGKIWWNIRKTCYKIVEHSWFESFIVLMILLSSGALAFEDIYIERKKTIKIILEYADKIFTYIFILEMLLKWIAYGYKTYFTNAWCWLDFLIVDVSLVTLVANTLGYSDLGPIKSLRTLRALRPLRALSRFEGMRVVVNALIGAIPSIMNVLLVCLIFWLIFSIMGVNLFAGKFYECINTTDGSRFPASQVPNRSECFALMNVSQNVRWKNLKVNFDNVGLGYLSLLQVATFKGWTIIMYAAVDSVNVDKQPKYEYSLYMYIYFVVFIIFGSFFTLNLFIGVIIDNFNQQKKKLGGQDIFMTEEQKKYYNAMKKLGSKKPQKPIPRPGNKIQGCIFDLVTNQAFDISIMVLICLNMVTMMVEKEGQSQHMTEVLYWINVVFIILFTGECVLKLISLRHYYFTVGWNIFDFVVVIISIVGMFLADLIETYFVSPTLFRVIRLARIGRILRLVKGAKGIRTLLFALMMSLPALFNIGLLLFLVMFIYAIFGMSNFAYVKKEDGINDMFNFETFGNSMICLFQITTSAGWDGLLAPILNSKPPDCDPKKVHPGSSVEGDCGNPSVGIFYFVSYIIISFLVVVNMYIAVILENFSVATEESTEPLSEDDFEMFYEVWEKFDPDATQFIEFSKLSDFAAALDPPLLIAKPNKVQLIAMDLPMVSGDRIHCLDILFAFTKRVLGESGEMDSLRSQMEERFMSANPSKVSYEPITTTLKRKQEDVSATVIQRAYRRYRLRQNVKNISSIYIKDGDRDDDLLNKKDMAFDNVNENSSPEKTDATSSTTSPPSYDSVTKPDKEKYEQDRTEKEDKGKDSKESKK

Target: human Nav1.7 (Homo sapiens, UniProt Q15858)
Assay: cell-based
Settings: whole-cell voltage clamp, HEK 293 cells; read-out: hNav1.7 IC50

Q: `CSCC[C@@H]1NC(=O)[C@H](Cc2c[nH]c3ccccc23)NC(=O)[C@H](CCCCN)NC(=O)[C@H](CCC(N)=O)NC(=O)[C@@H](NC(=O)[C@@H](N)Cc2c[nH]cn2)CSSC[C@@H]2NC(=O)[C@@H]3CSSC[C@@H](C(=O)N[C@@H](CCCNC(=N)N)C(=O)N[C@@H](Cc4ccc(C)cc4C)C(=O)N[C@@H](CCC(=O)O)C(=O)N[C@@H](CSC(C)(C)C)C(=O)N[C@@H](CC(C)C)C(N)=O)NC(=O)[C@H](Cc4c[nH]c5ccccc45)NC(=O)[C@H](CC(C)C)NC(=O)[C@H](CCCNC(=N)N)NC(=O)[C@H](CSSC[C@H](NC(=O)[C@H]([C@@H](C)O)NC(=O)[C@H](CCC(N)=O)NC1=O)C(=O)N[C@@H](CC(=O)O)C(=O)N[C@@H](CCCCN)C(=O)N[C@@H](CC(=O)O)C(=O)N[C@@H](CCCNC(=N)N)C(=O)N[C@@H](CCCCN)C(=O)N3)NC(=O)[C@H](CCCNC(=N)N)NC(=O)[C@H](Cc1ccccc1)NC(=O)CNC(=O)[C@H](CCC(=O)O)NC2=O` [PTx2-3260] was tested. Which IC50 did it give?
A: Its IC50 is 21 nM.
